# Measured values from US20080076760A1, “2,3,4,5-TETRAHYDRO-1H-1,5-BENZODIAZEPINE DERIVATIVE AND MEDICINAL COMPOSITION” (priority 2004, published 2008).
# By UniProt entry, the sequences of proteins in these tests, tags left out.
# UniProt P30518, whole entry: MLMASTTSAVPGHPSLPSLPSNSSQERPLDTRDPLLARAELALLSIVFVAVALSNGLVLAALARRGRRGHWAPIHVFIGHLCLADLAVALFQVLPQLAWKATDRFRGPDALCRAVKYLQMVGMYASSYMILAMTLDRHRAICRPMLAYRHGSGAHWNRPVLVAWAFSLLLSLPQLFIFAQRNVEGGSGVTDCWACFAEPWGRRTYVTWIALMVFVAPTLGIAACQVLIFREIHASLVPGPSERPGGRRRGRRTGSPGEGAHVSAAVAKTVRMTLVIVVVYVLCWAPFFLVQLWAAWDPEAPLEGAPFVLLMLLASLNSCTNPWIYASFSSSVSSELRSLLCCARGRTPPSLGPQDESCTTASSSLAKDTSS
# UniProt P37288, whole entry: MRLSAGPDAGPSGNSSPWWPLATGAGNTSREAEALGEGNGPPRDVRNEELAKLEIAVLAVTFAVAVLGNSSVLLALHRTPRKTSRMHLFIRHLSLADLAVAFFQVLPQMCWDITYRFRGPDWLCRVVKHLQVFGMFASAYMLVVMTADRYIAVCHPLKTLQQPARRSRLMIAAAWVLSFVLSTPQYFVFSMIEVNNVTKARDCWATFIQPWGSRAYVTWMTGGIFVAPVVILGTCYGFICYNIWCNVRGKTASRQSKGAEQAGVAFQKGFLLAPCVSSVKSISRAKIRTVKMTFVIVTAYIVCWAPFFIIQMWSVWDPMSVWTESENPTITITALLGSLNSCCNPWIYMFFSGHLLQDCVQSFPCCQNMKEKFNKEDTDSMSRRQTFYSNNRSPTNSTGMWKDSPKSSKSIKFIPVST
# Experiments:
# [1] = molecular target: human vasopressin V2 receptor (Homo sapiens, UniProt P30518); assay: Receptor binding study, [3H]AVP displacement on CHO cell membranes, human V2; conditions: read-out: Human V2 Ki, CHO cell membrane, 25° C., one hour
# [2] = molecular target: human vasopressin V1a receptor (Homo sapiens, UniProt P37288); assay: Receptor binding study, [3H]AVP displacement on CHO cell membranes, human V1a; conditions: read-out: Human V1a Ki, CHO cell membrane, 25° C., one hour
smiles,measurement,setting,value
CC1CCN(C(=O)c2ccc(-c3ccc4[nH]ccc4c3)c(OCCCN3CCCC3=O)c2)c2ccccc2N1 (centres unmarked),Ki,[1],2.4 nM
same,Ki,[2],0.36 nM
